# Measured affinities in a library of Ab-95 light chain variants

Antigen: PDVDLGDISGINAS, a 14-residue peptide of the SARS-CoV-2 spike HR2 region.

Parent scFv Ab-95: VH joined to VL by a (GGGGS)3 linker. Changes lie in the light chain CDRs alone.
VH: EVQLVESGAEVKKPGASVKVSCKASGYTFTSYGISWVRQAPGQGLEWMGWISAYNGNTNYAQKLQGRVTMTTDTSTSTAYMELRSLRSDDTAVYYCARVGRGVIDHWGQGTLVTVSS
VL: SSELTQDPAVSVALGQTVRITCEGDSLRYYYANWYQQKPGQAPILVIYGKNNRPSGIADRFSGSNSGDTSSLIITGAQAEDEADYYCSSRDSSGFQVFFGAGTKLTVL

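In library AAYL52, one, two or three CDR residues were substituted; doubles and triples were drawn at random. The scFvs were displayed on barcoded MATa yeast, the peptide on MATalpha yeast. After mating in shaken culture at 30 °C for 16 h, diploids were selected and their barcode pairs sequenced. The ratio of observed to expected reads was calibrated, replicate by replicate, on BCL2-family standards whose Kd was known from biolayer interferometry. There are three technical replicates.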

Sequences are complete VL domains.
Values are log10 of the apparent Kd in nM; lower means stronger binding.
A mean of the replicates is given; it leaves out those without a signal.
"nd" marks a missing value. The strain was present, yet no cells mated with the target were sequenced in any replicate, which points to weak or no binding.
Nonspecific signal, from three strains lacking the peptide, appeared in 28% of pairings of library AAYL52, centred on 3.91 (5% of these signals below 2.90); values are not corrected for it. For each scFv, signals with the empty controls are counted beside the result.

VL	mean log10 Kd (nM)	replicates with signal	signal with controls
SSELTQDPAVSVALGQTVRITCTGDSLRMYYANWYQQKPGQAPILVIYGKGNRPSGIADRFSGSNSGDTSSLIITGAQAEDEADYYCSSRDSSGFQVFFGAGTKLTVL	2.27	3/3	5/9
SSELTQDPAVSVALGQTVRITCEGDSLRYYYMNWYQQKPGQAPILVIYGKNNQPSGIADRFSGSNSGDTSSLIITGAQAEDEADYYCSSRDTSGFQVFFGAGTKLTVL	nd	0/3	1/9
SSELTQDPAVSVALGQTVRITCEGDSLRYYYANWYQQKPGQAPILVIYGKQNRPSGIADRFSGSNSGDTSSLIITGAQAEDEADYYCSSRDSHGFQVPFGAGTKLTVL	3.66	3/3	4/9
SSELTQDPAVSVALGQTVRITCEADSLKYYYYNWYQQKPGQAPILVIYGKNNRPSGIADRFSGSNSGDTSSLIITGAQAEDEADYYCSSRDSSGFQVFFGAGTKLTVL	nd	0/3	0/9
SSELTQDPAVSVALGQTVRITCEWDSLRYYYFNWYQQKPGQAPILVIYGKNNRNSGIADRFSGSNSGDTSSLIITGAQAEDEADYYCSSRDSSGFQVFFGAGTKLTVL	nd	0/3	1/9
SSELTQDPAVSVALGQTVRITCEGCSLRYYYANWYQQKPGQAPILVIYGKHNRMSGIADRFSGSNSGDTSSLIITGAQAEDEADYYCSSRDSSGFQVFFGAGTKLTVL	3.82	2/3	6/9
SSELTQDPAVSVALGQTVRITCEGDSLRCYYANWYQQKPGQAPILVIYPKNNRPSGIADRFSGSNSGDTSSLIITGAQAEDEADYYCSSRDCSGFQVFFGAGTKLTVL	nd	0/3	2/9
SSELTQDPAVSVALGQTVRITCEGASLRYYYANWYQQKPGQAPILVIYGQSNRPSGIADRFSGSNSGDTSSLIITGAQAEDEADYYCSSRDSSGFQVFFGAGTKLTVL	2.40	3/3	5/9
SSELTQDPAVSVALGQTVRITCEGKELRQYYANWYQQKPGQAPILVIYGKNNRPSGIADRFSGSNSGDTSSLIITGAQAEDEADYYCSSRDSSGFQVFFGAGTKLTVL	2.84	3/3	3/9
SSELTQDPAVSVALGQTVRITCYGDSLRYYYANWYQQKPGQAPILVIYGKNNMPSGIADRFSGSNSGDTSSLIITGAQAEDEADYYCSSRDSSGWQVFFGAGTKLTVL	3.52	1/3	1/9
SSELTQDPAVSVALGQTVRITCMGDSLRYYYANWYQQKPGQAPILVIYGKNNRPSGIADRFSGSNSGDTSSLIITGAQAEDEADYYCSNRDSSGFQVFFGAGTKLTVL	3.18	3/3	8/9
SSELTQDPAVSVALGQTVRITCEGDSLRYYYCNWYQQKPGQAPILVIYGKNNRPSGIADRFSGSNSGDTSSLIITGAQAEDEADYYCSSRDSSGMQVKFGAGTKLTVL	3.96	3/3	1/9
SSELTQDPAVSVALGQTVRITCEGDSLRYYYKNWYQQKPGQAPILVIYGKNNRPSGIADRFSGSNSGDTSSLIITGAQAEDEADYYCSIRDSSGFQVYFGAGTKLTVL	nd	0/3	0/9
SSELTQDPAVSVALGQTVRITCEGDSLRYYYANWYQQKPGQAPILVIYGKNNRPSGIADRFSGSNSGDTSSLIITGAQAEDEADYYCSSRVYSGFQVFFGAGTKLTVL	1.70	3/3	3/9
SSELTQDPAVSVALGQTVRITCQGDSLRYYYANWYQQKPGQAPILVIYGKVNRPSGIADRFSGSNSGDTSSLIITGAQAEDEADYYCSSRDSSGFQGFFGAGTKLTVL	4.18	2/3	4/9
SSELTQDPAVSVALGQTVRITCHGTSLRYYYANWYQQKPGQAPILVIYCKNNRPSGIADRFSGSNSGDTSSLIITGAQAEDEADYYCSSRDSSGFQVFFGAGTKLTVL	4.29	2/3	5/9
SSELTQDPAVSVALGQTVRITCEGDSLRYYYANWYQQKPGQAPILVIYSKNNLPSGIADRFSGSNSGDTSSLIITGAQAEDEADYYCSSRDSHGFQVFFGAGTKLTVL	nd	0/3	3/9
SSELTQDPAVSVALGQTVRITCEGDSLRYYYNNWYQQKPGQAPILVIYGKNNRPSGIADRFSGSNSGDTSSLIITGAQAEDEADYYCSSRHSSGYQVFFGAGTKLTVL	3.79	3/3	3/9
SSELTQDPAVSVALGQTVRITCWMDSLRYYYANWYQQKPGQAPILVIYGKNNRPSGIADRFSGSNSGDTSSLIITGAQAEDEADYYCSSRDSNGFQVFFGAGTKLTVL	5.41	1/3	1/9
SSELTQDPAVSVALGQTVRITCEGDSLRYYYANWYQQKPGQAPILVIYGRNNRPSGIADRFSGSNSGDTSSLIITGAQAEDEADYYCSCRDSFGFQVFFGAGTKLTVL	3.03	3/3	1/9
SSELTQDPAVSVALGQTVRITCEGDSLRYYYANWYQQKPGQAPILVIYGKNNEPSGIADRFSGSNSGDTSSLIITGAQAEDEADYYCSSRDSDGRQVFFGAGTKLTVL	3.20	2/3	1/9
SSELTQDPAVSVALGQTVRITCEGDSLRYYYAFWYQQKPGQAPILVIYGKNNRCSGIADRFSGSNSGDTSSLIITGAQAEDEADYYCSSRESSGFQVFFGAGTKLTVL	1.46	3/3	4/9
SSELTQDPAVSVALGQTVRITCEGDTLAYYYANWYQQKPGQAPILVIYGKNNRPSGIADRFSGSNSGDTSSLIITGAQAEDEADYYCSSRDSSGPQVFFGAGTKLTVL	3.31	3/3	7/9
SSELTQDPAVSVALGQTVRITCEGDSYRYYYANWYQQKPGQAPILVIYGKNNRPSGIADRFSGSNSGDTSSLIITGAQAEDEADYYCSSRDSSTFQVFFGAGTKLTVL	3.15	1/3	1/9

Again, the first 3 entries without any signal:

VL	mean log10 Kd (nM)	replicates with signal	signal with controls
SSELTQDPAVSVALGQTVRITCEGDSLRYYYMNWYQQKPGQAPILVIYGKNNQPSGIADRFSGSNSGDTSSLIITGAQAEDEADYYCSSRDTSGFQVFFGAGTKLTVL	nd	0/3	1/9
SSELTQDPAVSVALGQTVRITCEADSLKYYYYNWYQQKPGQAPILVIYGKNNRPSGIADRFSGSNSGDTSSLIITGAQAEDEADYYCSSRDSSGFQVFFGAGTKLTVL	nd	0/3	0/9
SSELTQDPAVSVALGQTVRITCEWDSLRYYYFNWYQQKPGQAPILVIYGKNNRNSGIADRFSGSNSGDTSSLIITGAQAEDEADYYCSSRDSSGFQVFFGAGTKLTVL	nd	0/3	1/9

Data: MIT Lincoln Laboratory AlphaSeq set, Engelhart et al. 2022, doi:10.1038/s41597-022-01779-4, as distributed in FLAb.